Data: US9981961B2, “Deoxycytidine kinase inhibitors” (The Regents of the University of California, priority 2013, dated 2018)

The chains behind the UniProt entries cited, without tags or fusion partners.
UniProt P27707, whole entry: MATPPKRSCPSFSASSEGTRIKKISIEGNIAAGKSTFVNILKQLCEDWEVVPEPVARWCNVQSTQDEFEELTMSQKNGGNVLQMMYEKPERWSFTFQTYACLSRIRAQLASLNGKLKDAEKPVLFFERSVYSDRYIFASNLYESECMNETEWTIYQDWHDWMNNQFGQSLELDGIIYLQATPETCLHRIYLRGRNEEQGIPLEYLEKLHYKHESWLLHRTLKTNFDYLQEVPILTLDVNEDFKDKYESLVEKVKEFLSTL

Target: dCK in CCRF-CEM cells (Homo sapiens, UniProt P27707)

| Structure (SMILES) | IC50 [nM] |
| --- | --- |
| Cc1sc(-c2ccc(OCCNS(C)(=O)=O)c(OCCNS(C)(=O)=O)c2)nc1C(C)Sc1nc(N)cc(N)n1 (centres unmarked) | 200 |
| COCCOCCOCCOc1cc(-c2nc(C(C)Sc3nc(N)cc(N)n3)c(C)s2)ccc1OCCNS(C)(=O)=O (centres unmarked) | 61.4 |
